The target in this assay is acetylcholine esterase (Mus musculus, UniProt P21836). To be noted: read-out: AChE inhibiting activity IC50; mouse brain homogenate; acetylthiocholine substrate, DTNB, 412 nm; tested form: HCl.

Chains of the proteins cited; added tags and fusions are not shown. Residues count along the entry.
UniProt P21836, 32-614 limits assumed: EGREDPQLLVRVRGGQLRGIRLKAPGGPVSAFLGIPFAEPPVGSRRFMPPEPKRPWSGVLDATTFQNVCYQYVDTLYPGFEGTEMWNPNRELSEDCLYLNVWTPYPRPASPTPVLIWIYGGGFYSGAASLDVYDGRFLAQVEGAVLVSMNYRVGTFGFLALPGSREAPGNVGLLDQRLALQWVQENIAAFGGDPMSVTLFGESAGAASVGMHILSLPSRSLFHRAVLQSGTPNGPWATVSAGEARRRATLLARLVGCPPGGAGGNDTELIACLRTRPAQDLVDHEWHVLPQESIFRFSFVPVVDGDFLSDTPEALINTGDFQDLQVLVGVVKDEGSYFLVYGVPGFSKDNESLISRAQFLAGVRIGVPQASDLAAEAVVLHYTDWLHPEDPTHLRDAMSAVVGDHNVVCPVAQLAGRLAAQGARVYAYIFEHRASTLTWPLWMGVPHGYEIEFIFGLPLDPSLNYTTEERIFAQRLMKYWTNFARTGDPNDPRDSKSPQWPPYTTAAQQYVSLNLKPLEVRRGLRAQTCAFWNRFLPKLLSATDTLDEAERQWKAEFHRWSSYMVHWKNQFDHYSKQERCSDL

`COc1cc2c(cc1OC)OC(=O)N(CCC1CCN(Cc3ccccc3)CC1)C2`: the IC50 (in general, the point on the concentration scale where inhibition reaches its midpoint) stood at 0.2 nM.

The values are drawn from patent publication US5654308A (priority 1990, dated 1997).
